Results published in article PMC6155625 (Molecules : A Journal of Synthetic Chemistry and Natural …, 2017).

Assays:
[1] = test system: Salmonella typhimurium TA97; details: S9 mix + 2-aminoflourene 50 µg/plate; unpublished data; compared with test without S9
Method: (§1) The Ames assay was conducted according to the method modified by Maron and Ames. In the Ames test, three bacterial strains of S. typhimurium (TA97, TA98, and TA100) were used. These strains are deficient in histidine and biotin, and, at the same time, they are deficient in excision repair. Prior to each experiment, the quality of each bacterial strain was checked similarly, as described by Berg et al.. The assay was carried out in sterile test tubes containing 100 µL (approximately 1.10^8 cells/mL) of overnight bacterial culture (overnight cultivated in 50 mL of LB medium) and 2.5 mL of the top-agar (with traces of histidine and biotin). In the case of metabolic activation, S9 mix was used to activate a promutagen 2-aminofluorene (50 µg/plate, Serva, Heidelberg, Germany). […] As positive controls (PC), the following diagnostic/direct mutagens were used: 9-aminoacridine (50 µg/plate, Serva, Heidelberg, Germany) for TA97; 4-nitroquinoline-1-oxide (20 µg/plate, Serva, Heidelberg, Germany) for TA98; and sodium azide (50 µg/plate, Serva, Heidelberg, Germany) for TA100. […] After 48 h of cultivation at 37 °C, his^+ revertants were counted. All experiments were conducted in triplicate. The data obtained were then analyzed using Student’s t-test.

S. typhimurium TA98 = details: S9 mix + 2-aminoflourene 50 µg/plate; unpublished data; compared with test without S9
Method: as §1

S. typhimurium TA100 = details: S9 mix + 2-aminoflourene 50 µg/plate; unpublished data; compared with test without S9
Method: as §1

VH10 cells = assay: In vitro mammalian chromosome aberration test on VH10; type: cell-based, human; details: 100 metaphases
Method: HepG2 and VH10 cells were seeded into Petri dishes (Ø = 60 mm; HepG2 inoculum of 1 × 10^6 cells/dish and VH10 inoculum of 3.8 × 10^5 cells/dish) for 2 h. Then, HF non-clastogenic concentrations (0.75 or 1.5 µM) were added and the cultures were incubated for 24 h. These concentrations of HF were chosen based on preliminary experiments (range-finding tests). Afterwards the medium was replaced with fresh medium alone or with fresh medium containing mutagens B(a)P (1.7 μM for HepG2 cells) or cisPt (0.5 μM for HepG2 cells and 0.75 μM for VH10 cells), and the HepG2 cells were cultivated further for 42 h and VH10 cells for 36 h, which approximately corresponds to 1.3 cell cycles of HepG2 and VH10 cells. Three hours before the end of the cultivation, colchicine (0.75 µg/mL) was added. Before karyological processing, the cells were counted. Slides were prepared by the standard air-drying method and were stained with 2% aqueos Giemsa-Romanowski solution for 10 min.
(§2) Chromosome aberrations were evaluated by a microscopic examination. For each sample, 100 metaphases were analyzed. We focused on the following structural aberrations; breaks, chromatid, and iso-chromatid, and exchanges, including dicentrics, rings, tri-radials and quadri-radials. The results were evaluated statistically on the basis of the difference between two relative values. The percentage of aberrant metaphases and the total number of chromosome aberrations was compared to solvent control (SC), or clastogenic effect, and positive control (PC), or anticlastogenic effect. Since the genetic significance of gaps is not clearly understood, they were not included in the assessment of chromosomal damage and thus were not evaluated statistically.

primary hepatocytes = details: HF 2.5 and 5 µM, ref 18 (Komoroski et al.); cited from earlier work
CYP2D6 = details: ref 39 (Obach); cited from earlier work
HepG2 cells [2] = assay: In vitro mammalian chromosome aberration test on HepG2; type: cell-based, human; details: 100 metaphases
Method: HepG2 and VH10 cells were seeded into Petri dishes (Ø = 60 mm; HepG2 inoculum of 1 × 10^6 cells/dish and VH10 inoculum of 3.8 × 10^5 cells/dish) for 2 h. […] Three hours before the end of the cultivation, colchicine (0.75 µg/mL) was added. Before karyological processing, the cells were counted. Slides were prepared by the standard air-drying method and were stained with 2% aqueos Giemsa-Romanowski solution for 10 min.
as §2

HepG2 cells [3] = test system: HepG2 cells
Method: Thereafter, the medium was removed, and replaced by 200 µL of DMSO. The absorbance was measured at 540 and 690 nm using an xMarkTM Microplate Spectrophotometer (Bio-Rad Laboratories, Inc., Berkeley, CA, USA).

human lymphocytes = details: HF 0.02–1 µM; preliminary experiments (unpublished data)
CYP2C9 = details: ref 39 (Obach); cited from earlier work
[4] = HF 0.75 µM alone, Table 1 experiment
[5] = HF 0.75 µM alone, Table 2 experiment
[6] = HF 1.5 µM alone, Table 1 experiment
[7] = HF 1.5 µM alone, Table 2 experiment

Hyperforin [HF]
antimutagenic effect with S9 mix [1]: same results | antimutagenic effect with S9 mix (S. typhimurium TA98): same results | antimutagenic effect with S9 mix (S. typhimurium TA100): same results | Number of Aberrant Metaphases (VH10 cells; HF 0.75 µM alone): 1 | Number of Chromosome Aberrations, Chromatid b/f (VH10 cells; HF 0.75 µM alone): 1 | Total Number of CA (VH10 cells; HF 0.75 µM alone): 1 | Number of Aberrant Metaphases (VH10 cells; HF 1.5 µM alone): 1 | Number of Chromosome Aberrations, Exchange dic (VH10 cells; HF 1.5 µM alone): 1 | Total Number of CA (VH10 cells; HF 1.5 µM alone): 1 | mitochondrial activity (primary hepatocytes): caused a decrease in mitochondrial activity | type of inhibition of CYP2D6 (CYP2D6): non-competitive inhibitor | Number of Aberrant Metaphases (HepG2 cells [2]; [4]): 2 | Number of Chromosome Aberrations, Chromatid b/f (HepG2 cells [2]; [4]): 2 | Number of Chromosome Aberrations, Chromatid g (HepG2 cells [2]; [4]): 1 | Total Number of CA (HepG2 cells [2]; [4]): 2 | Number of Aberrant Metaphases (HepG2 cells [2]; [5]): 1 | Number of Chromosome Aberrations, Chromatid b/f (HepG2 cells [2]; [5]): 1 | Total Number of CA (HepG2 cells [2]; [5]): 1 | Number of Aberrant Metaphases (HepG2 cells [2]; [6]): 2 | Number of Chromosome Aberrations, Chromatid b/f (HepG2 cells [2]; [6]): 2 | Total Number of CA (HepG2 cells [2]; [6]): 2 | Number of Aberrant Metaphases (HepG2 cells [2]; [7]): 3 | Number of Chromosome Aberrations, Isochromatid b/f (HepG2 cells [2]; [7]): 1 | Total Number of CA (HepG2 cells [2]; [7]): 3 | viability of HepG2 cells (MTT) (HepG2 cells [3]; HF 0.5–15 µM): did not reduce the viability | survival of HepG2 cells (MTT) (HepG2 cells [3]; HF 50–260 µM): significantly reduced the survival | genotoxicity in comet assay (human lymphocytes): did not show any genotoxicity | type of inhibition of CYP2C9 (CYP2C9): competitive inhibitor
